Data set [1] is described as follows: Phase I single-dose and multiple-dose, dose-escalation study: PK. It is filed as in vivo, human. An excerpt:
(§1) This phase concluded with a 12-week follow-up period.

Data set [2] can be described thus: Phase I single-dose and multiple-dose study: safety, antidrug antibodies. It is filed as in vivo, human.
From the text: as §1

Data set [3] relates to cerebral amyloid. The data set is described as follows: Phase I study: florbetapir PET imaging of cerebral amyloid. It is filed as in vivo, human. The method, then: as §1
Florbetapir scans were performed at baseline and after the last MAD dose, separated by approximately 7 months. The change in whole grey matter standardized uptake value ratio (SUVr) with cerebellum as a reference region was compared across dose cohorts, and the SUVr values were convened to standardized centiloid (CL) units.

Data set [4] relates to cerebral amyloid. The data set is described as follows: Phase Ib single- and multiple-dose study: quantitative amyloid PET imaging (florbetapir CL). It is filed as in vivo, human. The method, then: A phase Ib, double-blind, randomized within cohort, placebo-controlled, parallel-group, single- and multiple-dose study in patients with MCI due to AD or mild-to-moderate AD is being conducted to assess the safety, tolerability, and PK of single and multiple IV doses of Antibody III. The study will be conducted in at least seven cohorts, including single IV doses at 10 mg/kg, 20 mg/kg, or 40 mg/kg (cohorts 1, 2, and 3, respectively), IV doses every two weeks for 24 weeks at 10 mg/kg or 20 mg/kg (cohorts 4 and 5, respectively), and IV doses every four weeks for up to 72 weeks at 10 mg/kg or 20 mg/kg (cohorts 6 and 7, respectively).
The primary target engagement outcome is the reduction of cerebral amyloid as measured by quantitative amyloid PET imaging (florbetapir CL) assessed at baseline and at 12 weeks, 24 weeks, 36 weeks, 48 weeks, and 72 weeks after starting treatment.

The subject of another data set is deposited Aβ. The experiment in a line: Ex vivo target engagement on fixed PDAPP brain sections (immunohistochemistry). It is filed as binding, aged PDAPP mice. Conditions: 20 μg/mL antibody on brain sections of 25-month old PDAPP mice. The method, then:
Cryostat serial coronal sections from aged PDAPP mice (25-month old) are incubated with 20 μg/mL of an exemplified N3pGlu Aβ antibody of the present invention. Secondary HRP reagents specific for human IgG are employed and the deposited plaques are visualized with DAB-Plus (DAKO). Biotinylated murine 3D6 antibody followed by Step-HRP secondary is used as a positive control.

[5] abbreviates: 6 patients, 3 to 5 doses of 10 mg/kg IV over 6 months.

Positions count from the first letter of the chain named.

B1: Antibody III: anti-N3pGlu Aβ antibody, LC SEQ ID NO: 28 and HC SEQ ID NO: 29 (antibody)
heavy: QVQLVQSGAEVKKPGSSVKVSCKASGYDFTRYYINWVRQAPGQGLEWMGWINPGSGNTKYNEKFKGRVTITADESTSTAYMELSSLRSEDTAVYYCAREGITVYWGQGTTVTVSSASTKGPSVFPLAPSSKSTSGGTAALGCLVKDYFPEPVTVSWNSGALTSGVHTFPAVLQSSGLYSLSSVVTVPSSSLGTQTYICNVNHKPSNTKVDKKV[human IgG1 Fc left out here]
light: DIVMTQTPLSLSVTPGQPASISCKSSQSLLYSRGKTYLNWLLQKPGQSPQLLIYAVSKLDSGVPDRFSGSGSGTDFTLKISRVEAEDVGVYYCVQGTHYPFTFGQGTKLEIKRTVAAPSVFIFPPSDEQLKSGTASVVCLLNNFYPREAKVQWKVDNALQSGNSQESVTEQDSKDSTYSLSSTLTLSKADYEKHKVYACEVTHQGLSSPVTKSFNRGEC
With B1, the mean clearance in data set [1] (AD patients, single IV dose 1.0 mg/kg) is 35.6 mL/h; in data set [1] (AD patients, single IV dose 10 mg/kg) it was 26.3 mL/h. The “mean terminal elimination half-life” value in data set [1] (AD patients, single IV dose from 0.1 mg/kg to 3.0 mg/kg) is “approximately 4 days”. In addition, in data set [1] (multiple-dose phase, 10-mg/kg dose level), the “Antibody III concentrations following multiple doses versus single-dose administration” value is on record as “generally similar to those observed after single-dose administration”. Further, the “Antibody III concentrations following multiple doses versus following the first single dose” value in data set [1] (multiple-dose phase, dose levels other than 10 mg/kg) is recorded as “significantly lower”. For the same molecule, the “serum Antibody III concentrations 28 days after dosing” value is reported as “below the limits of detection” in data set [1] (multiple-dose phase, most patients at dose levels ≤3 mg/kg) and “sustained quantifiable concentrations” in data set [1] (multiple-dose phase, patients receiving 10 mg/kg). For the same molecule, the “patients with treatment-emergent antidrug antibodies (ADAs)” value in data set [2] (3 months after the first dose, all dose groups) is on record as “Greater than 90%”. For the same molecule, the “cerebral vasogenic edema or microhemorrhage complications” value in data set [2] (setting [5]) is “without cerebral vasogenic edema or microhemorrhage complications”. The ADA titers entry in data set [2] (by the end of the MAD phase, persist 3 months after the last dose) was “tended to increase”. The infusion related reactions entry in data set [2] (upon multiple dosing) is recorded as “increased infusion related reactions”. The “mean reduction of cerebral amyloid” value in the data set on cerebral amyloid [3] (setting [5]) is 44 CL units. Moreover, in the data set on cerebral amyloid [3] (6 patients, 3 to 5 doses of 10 mg/kg IV over 6 months, baseline vs after last MAD dose (approx. 7 months)), the “change in cerebral amyloid (florbetapir PET imaging)” value is given as “significant reduction”. Besides, the “mean reduction in brain amyloid” value in the data set with cerebral amyloid [3] (corresponds to the mean CL reduction, 3 to 5 doses of 10 mg/kg IV over 6 months) is recorded as 40-50%. Further, the “amyloid removal in extended follow up (florbetapir scans)” value with cerebral amyloid [3] (three subjects, 3-5 doses of 10 mg/kg IV, 18 months after last dose) is recorded as “sustained amyloid removal”. Moreover, the “mean reductions of amyloid in cohorts to date by florbetapir PET” value with cerebral amyloid [4] (10, 20 and 40 mg/kg single doses and 10 mg/kg multiple doses, 12 weeks) is given as −12 to −39 CL. Besides, the “amyloid clearance in scans beyond 12 weeks” value in the data set on cerebral amyloid [4] (multiple dose cohort, with dosing) was “further amyloid clearance is observed”; with cerebral amyloid [4] (single dose cohorts), “amyloid clearance is sustained”. Moreover, the “labeling of deposited Aβ in PDAPP hippocampus” value (“labeling of deposited Aβ” below) with deposited Aβ is recorded as “labeled a subset of deposits”.

B2: Antibody I: anti-N3pGlu Aβ antibody, LC SEQ ID NO: 12 and HC SEQ ID NO: 11 (antibody)
heavy: B1 heavy with D28T, R31D, A97T, I101E, T110L
light: B1 light with I2V, T7S, S12P, P15L, L41F, L42Q, K44R, Q50R, L51R, A55D
As for B2, the “labeling of deposited Aβ” value in the data set with deposited Aβ is reported as “labeled a subset of deposits”.

B3: Antibody II: anti-N3pGlu Aβ antibody, LC SEQ ID NO: 13 and HC SEQ ID NO: 11 (antibody)
heavy: B1 heavy with D28T, R31D, A97T, I101E, T110L
light: DIQMTQSPSTLSASVGDRVTITCKSSQSLLYSRGKTYLNWLQQKPGKAPKLLIYAVSKLDSGVPSRFSGSGSGTEFTLTISSLQPDDFATYYCVQGTHYPFTFGQGTKLEIKRTVAAPSVFIFPPSDEQLKSGTASVVCLLNNFYPREAKVQWKVDNALQSGNSQESVTEQDSKDSTYSLSSTLTLSKADYEKHKVYACEVTHQGLSSPVTKSFNRGEC
As to B3, the “labeling of deposited Aβ” value in the data set with deposited Aβ is “labeled a subset of deposits”.

B4: Antibody IV: anti-N3pGlu Aβ antibody, LC SEQ ID NO: 28 and HC SEQ ID NO: 30 (antibody)
heavy: B1 heavy with D28T, I101T
light: B1 light
Take B4: the “labeling of deposited Aβ” value in the data set with deposited Aβ is “labeled a subset of deposits”.

B5: Antibody V: anti-N3pGlu Aβ antibody, LC SEQ ID NO: 33 and HC SEQ ID NO: 35 (antibody)
heavy: B1 heavy with D28T, R31D, I101E
light: B1 light
Consider B5, for which the “labeling of deposited Aβ” value in the data set on deposited Aβ was “labeled a subset of deposits”.

The values above are taken from patent US11312763B2, “Anti-N3pGlu amyloid beta peptide antibodies and uses thereof” (Eli Lilly and Company, priority 2016, dated 2022).
